Assay results published in patent publication US7345051B2, “Mucin synthesis inhibitors” (Genaera Corporation, priority 2000, dated 2008).

System: activated Caco2 cells
Experiment: Mucin production (PAS staining) by activated Caco2 cells
Conditions: FIG. 2; concentration not given

Substance: Tolfenamate
- Mucin production by activated Caco2 cells: inhibited
